## AlphaSeq binding of Ab-14 heavy chain variants to a spike HR2 peptide

Antigen: PDVDLGDISGINAS, a 14-residue peptide of the SARS-CoV-2 spike HR2 region.

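These sequences belong to a second round, designed from the earlier measurements on random variants of the parent. Their group label is 14H_En_HC (En: ensemble of fine-tuned language models; HC: hill climbing; a sequence that several methods proposed may carry one label only). The assay is AlphaSeq: two haploid yeast populations carry antibody and antigen on their surface. After mating in shaken culture at 30 °C for 16 h, diploids were selected and their barcode pairs sequenced. The ratio of observed to expected reads was calibrated, replicate by replicate, on BCL2-family standards whose Kd was known from biolayer interferometry. The assay was run in six technical replicates.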

Each scFv is VH, the linker GGGGSGGGGSGGGGS, VL, as in the parent Ab-14, and differs from it in the CDRs of the heavy chain only.
VH: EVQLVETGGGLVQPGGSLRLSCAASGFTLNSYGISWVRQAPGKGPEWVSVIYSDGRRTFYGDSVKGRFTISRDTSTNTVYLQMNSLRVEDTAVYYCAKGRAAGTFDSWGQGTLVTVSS
VL: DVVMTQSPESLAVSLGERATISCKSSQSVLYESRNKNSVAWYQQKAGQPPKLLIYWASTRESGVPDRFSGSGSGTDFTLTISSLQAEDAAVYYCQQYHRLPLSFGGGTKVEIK

The parent's heavy chain CDRs are GFTLNSYGIS, VIYSDGRRTFYGDSVK, GRAAGTFDS; each variant's own CDRs replace them letter for letter.
Numbers give log10(Kd / nM), so 0 is 1 nM and 3 is 1 µM. Smaller is tighter.
A pair that was not seen in that replicate is written "n.d."; this usually means weak binding, but a binder can also be missed.

CDR-H1 | CDR-H2 | CDR-H3 | replicates, log10 nM | control signals
GFDLNEYGIS | VIYADGKRTFYADSVK | GQLAGTFDL | -0.22 -0.43 -0.58 -0.46 -0.69 -0.44 | 0 of 18
GFDLNEYGIS | VIYADGRRTAYADSVK | GQLAGTFDI | -0.41 -0.34 -0.55 -0.34 -0.44 -0.22 | 0 of 18
GFDLNEYGIS | VIYADGMRTFYSDSVK | GAVAGTFDK | -0.43 -0.62 -0.58 -0.86 -0.73 -0.71 | 0 of 18
GFDLNEYGIS | VIYADGRRTFYTDSVK | GEAAGTFDS | -0.48 -0.44 -0.83 -0.94 -1.10 0.04 | 0 of 18
GFDLNEYGIS | VIYADGRRTQYADSVK | GEAAGTFDS | -0.53 -0.34 -0.15 0.04 0.15 0.31 | 0 of 18
GFDLDEYGIS | VIYADGRRTFYTDSVK | GSNAGTFLM | n.d. 3.33 2.86 n.d. 2.85 2.74 | 1 of 18 (3.17)
GFNLDEYGIS | VIYADGRRTFYADSVK | GQVAGTFDF | 0.13 -0.09 -0.21 -0.13 -0.38 -0.11 | 0 of 18
GFNLEDYGIS | VIYADGRRTAYVDSVK | GKVAGTFDV | -0.53 -0.29 -0.98 -0.62 -1.01 -1.29 | 0 of 18
GFDLNEYGIS | VIYADGRRTFYTDSVK | GNMAGTFLV | 0.80 0.90 0.12 0.45 0.40 0.48 | 0 of 18
GFELDEYGIS | VIYADGRRTFYADSVK | GNVAGTFDQ | 0.19 0.43 0.24 0.37 -0.07 0.33 | 1 of 18 (4.05)
GFDLNEYGIS | VIYADGQRTFYIDSVK | GEIAGTFNT | 0.90 0.02 0.25 0.65 1.48 1.04 | 1 of 18 (1.25)
GFDLNEYGIS | VIYADGQRTAYADSVK | GKLAGTFDS | -0.50 -0.44 -0.56 -0.83 -0.70 -0.42 | 1 of 18 (2.39)
GFNLNEYGIS | VIYADGRRTFYADSVK | GEIAGTFDV | -0.46 -0.67 -0.92 -1.22 -0.84 -0.69 | 0 of 18
GFNLNEYGIS | VIYADGRRTFYADSVK | GEIAGTFDI | 0.08 -0.05 -0.26 -0.38 -0.19 -0.02 | 1 of 18 (2.96)
GFDLNEYGIS | VIYADGRRTFYADSVK | GNNAGTFIM | n.d. n.d. n.d. 3.81 n.d. n.d. | 1 of 18 (1.64)
GFDLNEYGIS | VIYADGVRTAYIDSVK | GHAAGTFDV | -0.47 -0.64 -0.86 -0.76 -0.75 -0.50 | 0 of 18
GFDLNEYGIS | VIYADGLRTQYIDSVK | GEQAGTFDV | -0.37 -0.52 -0.61 -0.50 -0.40 -0.18 | 0 of 18
GFSLDEYGIS | VIYADGRRTFYQDDVK | GNVAGTFDV | n.d. n.d. n.d. n.d. n.d. n.d. | 0 of 18
GFDLNEYGIS | VIYADGRRTFYSDSVK | GGNAGTFDQ | -0.05 -0.24 -0.27 -0.44 -0.37 -0.12 | 0 of 18
GFDLNEYGIS | VIYADGMRTFYTDSVK | GEFAGTFDL | 0.51 0.49 0.22 0.51 0.40 1.12 | 2 of 18 (1.40)
GFDLNEYGIS | VIYADGRRSFYADSVK | GNLAGTFDS | 0.43 -0.97 -0.86 -0.86 -0.51 -1.00 | 0 of 18
GFDLNEYGIS | VIYADGRRTQYIDSVK | GNEAGTFDI | 0.57 -0.56 -0.21 -0.31 -0.47 -0.36 | 0 of 18
GFDLNEYGIS | VIYADGRRTSYKDSVK | GELAGTFDV | 0.10 -0.11 -0.75 -0.43 0.07 -0.05 | 0 of 18
GFDLNEYGIS | VIYADGRRTFYSDSVK | GATGGTFDI | -0.51 -0.10 -0.31 -0.43 -0.36 -0.15 | 1 of 18 (1.33)
GFDLDEYGIS | VIYADGRRTFYADSVK | GEAAGTFDS | 0.01 -0.12 -0.78 -0.45 -0.18 -0.11 | 0 of 18
GFDLNEYGIS | VIYADGRRTQYIDSVK | GEEAGTFDL | -0.75 -0.13 n.d. n.d. 0.47 n.d. | 0 of 18
GFDLNEYGIS | VIYADGIRTFYADSVK | GNAAGTFDQ | -0.43 -0.37 -0.79 -0.46 -0.87 0.02 | 0 of 18
GFDLEDYGIS | VIYADGRRTQYADSVK | GEEAGTFDL | 0.02 0.77 0.10 0.04 0.42 0.33 | 0 of 18
GFDLNEYGIS | VIYADGRRTAYTDSVK | GANAGTFDQ | 1.03 0.24 0.41 0.52 0.42 0.19 | 0 of 18
GFDLNEYGIS | VIYADGRRTSYIDSVK | GNEAGTFDV | 0.35 -0.62 -0.17 -0.31 0.04 -0.13 | 0 of 18
GFQLDEYGIS | VIYADGKRTFYADSVK | GEVAGTFDV | -0.37 0.08 -0.23 -0.40 -1.01 -0.44 | 0 of 18
GFDLNEYGIS | VIYADGMRTAYTDSVK | GNTAGTFDS | -1.45 -1.04 -1.25 -1.55 -1.65 -1.39 | 0 of 18

A selection of 3 entries from above:

CDR-H1 | CDR-H2 | CDR-H3 | replicates, log10 nM | control signals
GFNLNEYGIS | VIYADGRRTFYADSVK | GEIAGTFDI | 0.08 -0.05 -0.26 -0.38 -0.19 -0.02 | 1 of 18 (2.96)
GFDLNEYGIS | VIYADGRRTSYIDSVK | GNEAGTFDV | 0.35 -0.62 -0.17 -0.31 0.04 -0.13 | 0 of 18
GFDLNEYGIS | VIYADGRRTAYTDSVK | GANAGTFDQ | 1.03 0.24 0.41 0.52 0.42 0.19 | 0 of 18

The range of this assay differs from that of the first round, and the authors advise against merging the two.
The authors averaged sequences with at least three values out of six and counted those with two or fewer as poor binders.
Background: pairings of all heavy chain designs with three empty control strains gave a value in 1% of cases (median 2.08, 5th percentile 0.84). Values in that range, when seen in few replicates, are hard to tell from nonspecific mating. The control count says in how many pairings with the empty strains this scFv gave a signal, with their mean in brackets.

Reference: Li et al. 2023, doi:10.1038/s41467-023-39022-2. File: FLAb, binding data.